Results published in US9556471B2, “Enzyme containing liquid and delivery system for detection of analytes on surfaces” (dated 2017).

Sequences of proteins named here, by UniProt entry; tags and fusion partners are left off. Residues count along the entry.
UniProt P22303, 32-614 limits assumed: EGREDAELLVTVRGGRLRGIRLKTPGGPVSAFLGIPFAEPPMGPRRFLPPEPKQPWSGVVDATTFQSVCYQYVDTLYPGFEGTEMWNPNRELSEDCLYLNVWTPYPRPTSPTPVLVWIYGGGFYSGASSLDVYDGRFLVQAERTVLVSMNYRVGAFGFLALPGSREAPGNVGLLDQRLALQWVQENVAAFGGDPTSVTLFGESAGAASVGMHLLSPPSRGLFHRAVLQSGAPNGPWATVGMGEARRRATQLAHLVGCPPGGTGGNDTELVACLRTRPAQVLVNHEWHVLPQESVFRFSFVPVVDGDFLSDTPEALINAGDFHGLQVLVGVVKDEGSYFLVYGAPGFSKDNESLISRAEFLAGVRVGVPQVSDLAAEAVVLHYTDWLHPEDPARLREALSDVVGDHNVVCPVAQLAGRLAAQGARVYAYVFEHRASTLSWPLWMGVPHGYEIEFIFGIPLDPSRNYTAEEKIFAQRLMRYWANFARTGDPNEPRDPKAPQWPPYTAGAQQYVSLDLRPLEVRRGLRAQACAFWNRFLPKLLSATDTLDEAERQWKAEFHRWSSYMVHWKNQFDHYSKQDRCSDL

What was measured:
AChE = AChE (Homo sapiens, UniProt P22303); test: AChE/urease liquid with carboxy-SNARF, organophosphate detection via fluorescence measurement; details: 2 mg dichlorvos in 10 mL sensor (0.2 mg/mL), 25 degrees C.
urease = urease (Canavalia ensiformis, UniProt P07374); test: Sprayed urease enzyme containing liquid, urea detection via visible color change; details: surface with 1 mL of 100 mM urea per tile; cresol red indicator

## COP(=O)(OC)OC=C(Cl)Cl
AChE; time 0 minutes
  emission wavelength of the fluorescent indicator: 600 nm
AChE; time 8 minutes, shift due to inhibition of AChE
  emission wavelength of the fluorescent indicator: 650 nm

## urea
urease
  time for sprayed sensor to turn from yellow to red (catalytic hydrolysis of urea): ≤ 5 min
